In paper PMC8067754, “Active Transport of Hepatotoxic Pyrrolizidine Alkaloids in HepaRG Cells” (International Journal of Molecular Sciences, 2021):
Values joined by “and” are separate entries in the source; they are usually repeats but may differ in a detail not shown here. Identical values can stand only once.

Experiments:
HepaRG cells [1] = assay: Time-dependent PA depletion and PANO formation in cell culture medium of HepaRG cells at 37 °C and 4 °C (LC-MS/MS); conditions: for PA content in cell culture medium, Mean [%]: HepaRG, 700 nM PA, percent of initial PA concentration
Procedure: (§1) In order to measure time-dependent depletion of PA and PANO content in cell culture medium, cells were seeded at a density of 0.2 × 10^6 cells per well in a 6-well plate and cultivated as described in Section 4.2. After four weeks of cultivation, cells were adapted to serum-free medium and medium substituted with insulin, transferrin, selenium (ITS) serum extender (Capricorn Scientific, Ebsdorfergrund, Germany) 48 h prior to PA incubation for optimal LC-MS/MS measurements. […] Samples were taken after 2 h, 4 h, 8 h and 24 h.
(§2) Briefly, chromatographic separation of PA/PANO analytes was achieved on a 50 × 2.1 mm Kinetex ™ 2.6 μm CoreShell EVO C18 100 Å column protected by a SecurityGuard ™ ULTRA EVO C 18 2.1 mm guard column (both Phenomenex, Aschaffenburg, Germany) at a flow rate of 0.4 mL/min on a Shimadzu high performance liquid chromatography (HPLC) apparatus (LC-20AB, SIL-20AC HT, CTO-20AC, CBM-20A, Duisburg, Germany) coupled to an API4000 triple quadrupole MS (Sciex, Darmstadt, Germany). The following MS parameters were used for measurements in positive electrospray ionisation (ESI+) mode: ionisation voltage 2500 V, nebuliser gas 50 psi, heating gas 50 psi, curtain gas 30 psi, temperature 600 °C, collision gas level 7. The substance specific parameters are summarized in Kaltner et al. 2019 [79].

HepaRG cells [2] = assay: Cell viability (MTT assay) of HepaRG cells with and without transporter inhibitors; conditions: for viability [%], single replicates: repl. 1-6; for viability, MW [%]: mean of 6 replicates, no inhibitor; for Cell viability (MTT), percent of solvent control, Mean [%]: 24 h
Procedure: (§3) In the case of TEA, cells were pre-incubated 24 h prior to PA treatment. The inhibitors were applied anew at PA incubation.
To analyze the cytotoxic effects of PAs on HepaRG cells with non-inhibited and inhibited hepatic transporters, the cells were seeded at a density of 9000 cells per well in the inner 60 wells of a 96-well plate and cultivated as described in Section 4.2. After four weeks of cultivation, FBS concentration in the cell culture medium was reduced to 2% for 48 h prior incubation. Thereby, inhibitory effects of peptide growth factors from the FBS on xenobiotic-metabolizing enzymes were minimized. […] The cells were pre-incubated with pharmacological inhibitors as described in Section 4.3. […] Cell viability was analyzed via the MTT test. 10 µl MTT reagent (5 mg/mL MTT dissolved in phosphate-buffered saline, PBS) was added per well and incubated for 1 h at 37 °C. The supernatant was discarded, and the violet formazan crystals dissolved in 130 µL desorption solution (0.7% sodium dodecyl sulfate in propan-2-ol). After shaking for 20 min (under protection from light), absorbance was measured on a TecanM200Pro spectrometer (Tecan Group Ltd., Männedorf, Switzerland) at a wavelength of 570 nm, along with a reference wavelength of 630 nm.

HepaRG cells [3] = assay: PA and PANO content in cell culture medium of HepaRG cells upon pharmacological transporter inhibition (LC-MS/MS)
Procedure: as §3, §1, §2

## C/C=C(/C)C(=O)O[C@@H]1CCN2CC=C(COC(=O)[C@@](O)([C@H](C)O)C(C)(C)O)[C@H]12 [Echimidine, echimidine]
HepaRG cells [1]; 4 °C (cold), 0h
  PA content in cell culture medium, Mean [%]: 105.779%
HepaRG cells [1]; 4 °C (cold), 2h
  PA content in cell culture medium, Mean [%]: 103.801%
HepaRG cells [1]; 4 °C (cold), 8h
  PA content in cell culture medium, Mean [%]: 101.511%
HepaRG cells [1]; 37 °C (warm), 0h
  PA content in cell culture medium, Mean [%]: 103.451%
HepaRG cells [1]; cold, 2h
  PA in medium, single replicates (repl.): 92.2363% and 112.232%
HepaRG cells [1]; cold, 4h
  PA in medium, single replicates (repl.): 109.072%
HepaRG cells [1]; cold, 8h
  PA in medium, single replicates (repl.): 91.1786%
HepaRG cells [1]; cold, 24h
  PA in medium, single replicates (repl.): 112.994%
HepaRG cells [1]; warm, 2h
  PA in medium, single replicates (repl.): 70.4%

## C/C=C(/C)C(=O)O[C@H]1CCN2CC=C(COC(=O)[C@@](O)([C@@H](C)O)C(C)(C)O)[C@H]12 [Heliosupine, heliosupine]
HepaRG cells [1]; 4 °C (cold), 0h
  PA content in cell culture medium, Mean [%]: 92.2048%
HepaRG cells [1]; cold, 2h
  PA in medium, Mean [%]: 101.095%
  PA in medium, single replicates (repl.): 111.475%
HepaRG cells [1]; cold, 8h
  PA in medium, single replicates (repl.): 97.5566% and 104.353%
HepaRG cells [1]; cold, 24h
  PA in medium, single replicates (repl.): 85.8144%

## C/C=C1/C[C@@H](C)[C@@](C)(O)C(=O)OCC2=CCN3CC[C@@H](OC1=O)[C@@H]23 [Senecionine, senecionine]
HepaRG cells [2]; 50 µM
  viability [%], single replicates: 64.2099%
HepaRG cells [3]; plus CsA, 4h
  PA in medium, single replicates (repl.): 76.2448%
HepaRG cells [3]; plus CsA, 8h
  PA in medium, single replicates (repl.): 87.9321%
HepaRG cells [3]; plus Qu, 4h
  PA in medium, Mean [%]: 94.4839%
  PA in medium, single replicates (repl.): 97.1469%
HepaRG cells [3]; plus Qu, 8h
  PA in medium, Mean [%]: 83.2319%
HepaRG cells [3]; plus Qu, 24h
  PA in medium, Mean [%]: 67.4875%
HepaRG cells [3]; plus TEA, 8h
  PA in medium, single replicates (repl.): 68.4746%

## C/C=C1/C[C@@H](C)[C@@](C)(O)C(=O)OC/C2=C/CN(C)CC[C@@H](OC1=O)C2=O [Senkirkine, senkirkine]
HepaRG cells [1]; 4 °C (cold), 0h
  PA content in cell culture medium, Mean [%]: 116.557%
HepaRG cells [1]; 4 °C (cold), 2h
  PA content in cell culture medium, Mean [%]: 117.334%
HepaRG cells [1]; 4 °C (cold), 4h
  PA content in cell culture medium, Mean [%]: 113.535%
HepaRG cells [1]; 37 °C (warm), 0h
  PA content in cell culture medium, Mean [%]: 111.857%
HepaRG cells [1]; 37 °C (warm), 2h
  PA content in cell culture medium, Mean [%]: 108.399%
HepaRG cells [1]; 37 °C (warm), 4h
  PA content in cell culture medium, Mean [%]: 103.326%
HepaRG cells [1]; 37 °C (warm), 8h
  PA content in cell culture medium, Mean [%]: 88.0948%
HepaRG cells [1]; cold, 2h
  PA in medium, Mean [%]: 100.631%
  PA in medium, single replicates (repl.): 97.2674% and 107.717%
HepaRG cells [1]; cold, 4h
  PA in medium, Mean [%]: 97.2946%
  PA in medium, single replicates (repl.): 105.144%
HepaRG cells [1]; cold, 8h
  PA in medium, single replicates (repl.): 93.1897% and 109.296%
HepaRG cells [1]; cold, 24h
  PA in medium, single replicates (repl.): 81.5267% and 97.5949%
HepaRG cells [1]; warm, 2h
  PA in medium, single replicates (repl.): 107.805%
HepaRG cells [1]; warm, 4h
  PA in medium, single replicates (repl.): 102.584%

## retrorsine
HepaRG cells [2]; 1 µM
  viability, MW [%]: 93.8702%
  viability [%], single replicates: 82.0136% and 100.915% and 94.7011% and 95.3961% and 96.3108% and 93.8843%
HepaRG cells [2]; 10 µM
  viability, MW [%]: 82.9275%
  viability [%], single replicates: 71.3311% and 91.125% and 83.07% and 86.7773% and 87.4715% and 77.7902%
HepaRG cells [2]; 50 µM
  viability, MW [%]: 69.717%
  viability [%], single replicates: 52.6347% and 76.7434% and 75.5692% and 73.69% and 78.2744% and 61.3901%
HepaRG cells [2]; 100 µM
  viability, MW [%]: 62.1756%
  viability [%], single replicates: 45.221% and 72.9792% and 68.1256% and 69.8136% and 64.1128% and 52.8012%
HepaRG cells [2]; 250 µM
  viability, MW [%]: 54.7854%
  viability [%], single replicates: 40.1% and 64.221% and 59.0928% and 63.059% and 60.7782% and 41.4616%
HepaRG cells [2]; HepaRG, 2.5 µM, Figure S2
  cytotoxicity of the applied concentration: not cytotoxic
HepaRG cells [2]; HepaRG, 250 µM PA + CsA (10 µM, 1 h pre-incubation)
  Cell viability (MTT), percent of solvent control, Mean [%]: 82%
HepaRG cells [2]; HepaRG, 250 µM PA + CsA (10 µM, 1 h pre-incubation), listed as Re
  Cell viability (MTT), percent of solvent control, Mean [%]: 82.0505%
HepaRG cells [2]; HepaRG, 250 µM PA + Ko143 (5 µM, 1 h pre-incubation)
  Cell viability (MTT), percent of solvent control, Mean [%]: 57.6641%
HepaRG cells [2]; HepaRG, 250 µM PA + MK571 (50 µM, 1 h pre-incubation)
  Cell viability (MTT), percent of solvent control, Mean [%]: 72.349%
HepaRG cells [2]; HepaRG, 250 µM PA + Qu (100 µM, 1 h pre-incubation)
  Cell viability (MTT), percent of solvent control, Mean [%]: 100%
HepaRG cells [2]; HepaRG, 250 µM PA + Qu (100 µM, 1 h pre-incubation), listed as Re
  Cell viability (MTT), percent of solvent control, Mean [%]: 100.85%
HepaRG cells [2]; HepaRG, 250 µM PA + TEA (3 mM, 24 h pre-incubation)
  Cell viability (MTT), percent of solvent control, Mean [%]: 82%
HepaRG cells [2]; HepaRG, 250 µM PA + TEA (3 mM, 24 h pre-incubation), listed as Re
  Cell viability (MTT), percent of solvent control, Mean [%]: 82.5037%
HepaRG cells [2]; HepaRG, 250 µM PA only
  Cell viability (MTT), percent of solvent control, Mean [%]: 55%
HepaRG cells [2]; HepaRG, 250 µM PA only, listed as Re
  Cell viability (MTT), percent of solvent control, Mean [%]: 55.309%
HepaRG cells [1]; 4 °C (cold), 0h
  PA content in cell culture medium, Mean [%]: 107.862%
HepaRG cells [1]; 4 °C (cold), 2h
  PA content in cell culture medium, Mean [%]: 106.185%
HepaRG cells [1]; 4 °C (cold), 4h
  PA content in cell culture medium, Mean [%]: 105.63%
HepaRG cells [1]; 4 °C (cold), 8h
  PA content in cell culture medium, Mean [%]: 105.571%
HepaRG cells [1]; 4 °C (cold), 24h
  PA content in cell culture medium, Mean [%]: 102.674%
HepaRG cells [1]; 37 °C (warm), 0h
  PA content in cell culture medium, Mean [%]: 107.752%
HepaRG cells [1]; 37 °C (warm), 2h
  PA content in cell culture medium, Mean [%]: 97.8391%
HepaRG cells [1]; 37 °C (warm), 4h
  PA content in cell culture medium, Mean [%]: 81.6972%
HepaRG cells [1]; 37 °C (warm), 8h
  PA content in cell culture medium, Mean [%]: 63.1656%
HepaRG cells [1]; 37 °C (warm), 24h
  PA content in cell culture medium, Mean [%]: 14.6683%
HepaRG cells [1]; cold, 0h
  PA in medium, Mean [%]: 100%
  PA in medium, single replicates (repl.): 100%
HepaRG cells [1]; cold, 2h
  PA in medium, Mean [%]: 98.0469%
  PA in medium, single replicates (repl.): 98.2886% and 97.0686% and 88.9541% and 107.876%
HepaRG cells [1]; cold, 4h
  PA in medium, Mean [%]: 97.5769%
  PA in medium, single replicates (repl.): 98.6132% and 96.5055% and 87.5599% and 107.629%
HepaRG cells [1]; cold, 8h
  PA in medium, Mean [%]: 97.2641%
  PA in medium, single replicates (repl.): 93.1512% and 99.1094% and 90.8717% and 105.924%
HepaRG cells [1]; cold, 24h
  PA in medium, Mean [%]: 94.9785%
  PA in medium, single replicates (repl.): 97.9583% and 91.997% and 85.7801% and 104.179%
HepaRG cells [1]; warm, 0h
  PA in medium, Mean [%]: 100%
  PA in medium, single replicates (repl.): 100%
HepaRG cells [1]; warm, 2h
  PA in medium, Mean [%]: 89.9282%
  PA in medium, single replicates (repl.): 83.3711% and 89.5597% and 88.3434% and 98.4386%
HepaRG cells [1]; warm, 4h
  PA in medium, Mean [%]: 75.0081%
  PA in medium, single replicates (repl.): 72.1224% and 76.5005% and 66.1875% and 85.2218%
HepaRG cells [1]; warm, 8h
  PA in medium, Mean [%]: 58.1301%
  PA in medium, single replicates (repl.): 56.4322% and 60.1951% and 51.5042% and 64.3886%
HepaRG cells [1]; warm, 24h
  PA in medium, Mean [%]: 13.4736%
  PA in medium, single replicates (repl.): 14.2525% and 15.0173% and 8.466% and 16.1583%
